Our source for the IC50 values is ChEMBL document CHEMBL1133841 (Bioorg Med Chem Lett, 2001).

The structures appear in SMILES notation.

The experiment has as its target T1, Serine-threonine protein phosphatase 2A regulatory subunit (Gallus gallus, UniProt Q8AWE3).
T1 sequence (Q8AWE3 whole entry): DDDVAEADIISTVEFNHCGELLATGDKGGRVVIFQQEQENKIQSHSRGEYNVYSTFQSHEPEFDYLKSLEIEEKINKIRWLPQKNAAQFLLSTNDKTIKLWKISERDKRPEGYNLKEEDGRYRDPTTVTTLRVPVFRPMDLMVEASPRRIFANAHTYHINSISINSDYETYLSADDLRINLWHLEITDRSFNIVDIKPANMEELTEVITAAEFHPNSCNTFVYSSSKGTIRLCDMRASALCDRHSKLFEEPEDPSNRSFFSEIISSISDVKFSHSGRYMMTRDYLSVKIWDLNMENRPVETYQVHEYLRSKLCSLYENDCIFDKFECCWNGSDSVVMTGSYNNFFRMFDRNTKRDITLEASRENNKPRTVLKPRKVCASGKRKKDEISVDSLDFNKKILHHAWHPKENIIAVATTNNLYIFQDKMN
Put plainly: Inhibitory concentration against protein phosphatase 2A (PP2A) was determined.

By IC50 is commonly meant the concentration that gives 50% inhibition. A high value points to weaker potency. For `CC[C@H](C)[C@H](C(=O)O)N1C(=O)[C@@H]2[C@H](C1=O)[C@H]1CC[C@@H]2O1`, the concentration for half-maximal inhibition (IC50) is > 1000 µM.

For the compound `CC[C@H](C)[C@@H](C(=O)O)N1C(=O)[C@@H]2[C@H](C1=O)[C@H]1CC[C@@H]2O1`, the IC50 was > 1000 µM.
